≈ marks a conversion by molar mass, not a printed value.

Turning to `C=C1NC(=O)[C@H](Cc2c[nH]c3ccccc23)NC(=O)[C@H](NC(=O)/C(=C/C)NC(=O)[C@@H](N)C(C)C)CSC[C@@H](C(=O)N[C@H]2C(=O)N3CCC[C@H]3C(=O)NCC(=O)N[C@H](C(=O)N[C@H](C(=O)N[C@@H]3CSC[C@@H]4NC(=O)[C@H](CC(N)=O)NC(=O)[C@@H](CSC[C@@H]5NC(=O)[C@H](Cc6ccccc6)NC(=O)[C@@H](CS/C=C\NC5=O)NC4=O)NC(=O)CNC(=O)CNC(=O)CNC(=O)[C@@H]4CCCN4C3=O)[C@@H](C)O)CS[C@H]2C)NC(=O)[C@H](CC(C)C)NC1=O` [MF-BA-1768ß1], the figures for the minimum inhibitory concentration (MIC) against Staphylococcus aureus and in the assay on Enterococcus faecalis were 0.5 mg/L (≈ 0.229 µM) and 8 mg/L (≈ 3.67 µM), respectively.

As a reminder, the MIC is the lowest concentration found to suppress growth. A higher MIC goes with a need for much substance.

(Values after patent publication EP1855705B1, “ANTIBIOTIC 107891, ITS FACTORS, PHARMACEUTICALLY ACCEPTABLE SALTS AND COMPOSITIONS, AND USE THEREOF” (Sentinella Pharmaceuticals, Inc. ("Sentinella"), priority 2005, dated 2006).)
